## OPERA 2.9 data: Henry's law constant values

Data: OPERA 2.9 data sets, kmansouri/OPERA on GitHub.

The Henry's law constant is on a log10 scale in atm·m3/mol (set defined at 25 °C); higher favours air over water. Cells with "n/a" have no entry in this list.

compound,name,log Henry constant (log10 atm·m3/mol)
CCOC(=O)C1(C)OC(=O)N(c2cc(Cl)cc(Cl)c2)C1=O (stereo not drawn),Chlozolinate,-8.875
O=CNC(N1CCN(C(NC=O)C(Cl)(Cl)Cl)CC1)C(Cl)(Cl)Cl (stereo not drawn),"N,N'-Bis(1-formamido-2,2,2-trichloroethyl)piperazine",-7.732
CCC(C)(C)C(=O)OC1=C(c2ccc(Cl)cc2Cl)C(=O)OC12CCCCC2,Spirodiclofen,-6.705
O=C(Cc1ccccc1)N/C(=N\OCC1CC1)c1c(C(F)(F)F)ccc(F)c1F,Cyflufenamid,-6.557
O=C(NC(=O)c1c(F)cccc1F)Nc1cc(Cl)c(F)c(Cl)c1F,Teflubenzuron,-7.162
CCCCCCCCn1sccc1=O,Octhilinone,-7.686
ClC1=C(Cl)C(Cl)(C2(Cl)C(Cl)=C(Cl)C(Cl)=C2Cl)C(Cl)=C1Cl,Dienochlor,-3.165
COc1cccc(C(=O)NN(C(=O)c2cc(C)cc(C)c2)C(C)(C)C)c1C,Methoxyfenozide,-8.791
CC(C)=CC1C(C(=O)OCc2cccc(Oc3ccccc3)c2)C1(C)C (stereo not drawn),Phenothrin,-5.176
Cc1[nH]c(=O)n(C(C)(C)C)c(=O)c1Cl,Terbacil,-9.892
CC1(C)[C@H](C(=O)O[C@H](C#N)c2cccc(Oc3ccccc3)c2)[C@@H]1/C=C(\Cl)C(F)(F)F,n/a,-6.705
O=C(NC(=O)c1c(F)cccc1F)Nc1ccc(OC(F)(F)C(F)OC(F)(F)F)c(Cl)c1 (stereo not drawn),Novaluron,-4.705
CCC(C)(NC(=O)c1cc(Cl)c(C)c(Cl)c1)C(=O)CCl (stereo not drawn),Zoxamide,-7.187
C=CCC1=C(C)C(OC(=O)C2C(C=C(C)C)C2(C)C)CC1=O (stereo not drawn),Allethrin,-4.545
CNC(=O)ON=C(CSC)C(C)(C)C,n/a,-8.028
CCN(CC)C(=O)SCc1ccc(Cl)cc1,Thiobencarb,-6.44
CCSCCSP(=S)(OC)OC,Thiometon,-6.552
CCOC(=O)CCN(SN(C)C(=O)Oc1cccc2c1OC(C)(C)C2)C(C)C,n/a,-8.683
CCc1nn(C)c(C(=O)NCc2ccc(C(C)(C)C)cc2)c1Cl,Tebufenpyrad,-7.964
O=C(O)CCCOc1ccc(Cl)cc1Cl,"2,4-Dichlorophenoxybutyric acid",-8.514
COP(=O)(OC)SCn1c(=O)oc2cc(Cl)cnc21,Azamethiphos,-10.84
COP(=O)(OC)O/C(=C\Cl)c1cc(Cl)c(Cl)cc1Cl,n/a,-8.736
COc1ccc(C(=CC(=O)N2CCOCC2)c2ccc(Cl)cc2)cc1OC,Dimethomorph,-9.696
CC(C)=CC1C(C(=O)OCN2C(=O)C3=C(CCCC3)C2=O)C1(C)C (stereo not drawn),Tetramethrin,-5.773
CCNc1nc(Cl)nc(NCC)n1,Simazine,-9.258
CC(C)(COCc1cccc(Oc2ccccc2)c1)c1ccc(OC(F)(F)Br)cc1,Halfenprox,-4.134
COC(=O)c1c(C(F)F)nc(C(F)(F)F)c(C2=NCCS2)c1CC(C)C,Thiazopyr,-6.329
CN(C)C(=S)SSC(=S)N(C)C,Bis(dimethylaminothiocarbonyl) disulfide,-6.487
CCOC(=O)CSP(=S)(OCC)OCC,Acethion,-6.453
CSC(C)=NOC(=O)N(C)SN(C)C(=O)ON=C(C)SC,Thiodicarb,-6.371
COP(=S)(OC)Oc1ccc(S(=O)(=O)N(C)C)cc1,Famphur,-7.794
CC1(C(=O)Nc2ccc(O)c(Cl)c2Cl)CCCCC1,Fenhexamid,-10.31
CCN(C(=O)n1nnn(-c2ccccc2Cl)c1=O)C1CCCCC1,Fentrazamide,-10.16
Oc1nc(Cl)c(Cl)cc1Cl,"3,5,6-Trichloro-2-pyridinol",-4.964
CCOP(=S)(OCC)SCSC(C)(C)C,Terbufos,-4.574
CC(C)(C)C(=O)C(Oc1ccc(Cl)cc1)n1cncn1 (stereo not drawn),Triadimefon,-9.051
CC(C)OC(=O)Cl,Isopropyl chloroformate,-2.382
O=C1C(Cl)C(CCl)CN1c1cccc(C(F)(F)F)c1 (stereo not drawn),Flurochloridone,-7.626
ClC1=C(Cl)[C@]2(Cl)[C@H]3[C@H]([C@@H]4O[C@]4(Cl)[C@@H]3Cl)[C@@]1(Cl)C2(Cl)Cl,Oxychlordane,-6.42
NCP(=O)(O)O,Aminomethylphosphonic acid,-5.802
COC(=O)NC(=S)Nc1ccccc1NC(=S)NC(=O)OC,Thiophanate-methyl,-9.097
O=c1oc2ccccc2c(O)c1C1CC(c2ccc(-c3ccc(Br)cc3)cc2)Cc2ccccc21 (stereo not drawn),Brodifacoum,-8.006
C#CCN1CC(=O)N(COC(=O)C2C(C=C(C)C)C2(C)C)C1=O (stereo not drawn),Imiprothrin,-10.21
COP(=S)(OC)Oc1ccc(Sc2ccc(OP(=S)(OC)OC)cc2)cc1,Temephos,-8.707
CO/C=C(/C(=O)OC)c1ccccc1COc1cccc(C(F)(F)F)n1,Picoxystrobin,-8.228
CC(C)(C)C(O)/C(=C\c1ccc(Cl)cc1Cl)n1cncn1 (stereo partly drawn),Diniconazole,-6.404
Cc1c(F)c(F)c(COC(=O)C2C(/C=C(\Cl)C(F)(F)F)C2(C)C)c(F)c1F (stereo partly drawn),Tefluthrin,-2.705
CNC1CCCCC1,N-Methylcyclohexanamine,-8.934
O=C1CCc2cccc3c2N1CC3,Pyroquilon,-10.16

The first 3 entries again:

compound,name,log Henry constant (log10 atm·m3/mol)
CCOC(=O)C1(C)OC(=O)N(c2cc(Cl)cc(Cl)c2)C1=O (stereo not drawn),Chlozolinate,-8.875
O=CNC(N1CCN(C(NC=O)C(Cl)(Cl)Cl)CC1)C(Cl)(Cl)Cl (stereo not drawn),"N,N'-Bis(1-formamido-2,2,2-trichloroethyl)piperazine",-7.732
CCC(C)(C)C(=O)OC1=C(c2ccc(Cl)cc2Cl)C(=O)OC12CCCCC2,Spirodiclofen,-6.705

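These are experimental values that the OPERA curators gathered from public databases to train and test their QSAR models. One number stands for a compound and property, with no spread given. Conditions of the individual experiments are not part of the data. A value may pool stereoisomers or salt forms, and the file does not say which form was measured. Unmarked limits or estimates from the upstream databases cannot be ruled out.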